# Yeast mating assay 1: variants of the scFv Ab-14

Source: Engelhart et al. 2022 (doi:10.1038/s41597-022-01779-4), MIT Lincoln Laboratory and A-Alpha Bio; data file from the FLAb repository.

Target peptide (SARS-CoV-2 spike, HR2 region): PDVDLGDISGINAS

Parent: Ab-14, a human scFv built as VH, a 15-residue (Gly4Ser)3 linker, VL. Only the CDRs of the heavy chain vary.
VH: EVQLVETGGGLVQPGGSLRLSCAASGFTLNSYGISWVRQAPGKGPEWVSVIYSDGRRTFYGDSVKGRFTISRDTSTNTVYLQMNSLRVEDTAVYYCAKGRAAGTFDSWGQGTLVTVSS
VL: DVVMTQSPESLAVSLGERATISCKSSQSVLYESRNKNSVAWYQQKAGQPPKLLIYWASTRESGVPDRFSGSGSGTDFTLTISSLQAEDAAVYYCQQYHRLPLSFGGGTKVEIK

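The parent was found by panning a naive human phage display library on the peptide. Variants in AAYL49 differ from the parent at up to three CDR positions; double and triple changes were sampled at random. The scFvs were displayed on barcoded MATa yeast, the peptide on MATalpha yeast. The frequency of each diploid, read from paired DNA barcodes, reflects how well the two displayed proteins bind. A regression on co-assayed BCL2-family reference pairs converts the normalised counts of each replicate to an apparent Kd. Mating was done three times.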

Variants are written as CDR1, CDR2 and CDR3 of the heavy chain (limits as in the source). Parent: GFTLNSYGIS, VIYSDGRRTFYGDSVK, GRAAGTFDS.
All variants listed here change I51 of the VH, counted from its first residue.
Numbers give log10(Kd / nM), so 0 is 1 nM and 3 is 1 µM. Smaller is tighter.
Averages over replicates are reported, and they cover detected replicates only.
"ND" marks a missing value. The strain was present, yet no cells mated with the target were sequenced in that replicate, which points to weak or no binding.
Nonspecific signal, from three strains lacking the peptide, appeared in 15% of pairings of library AAYL49, centred on 4.06 (5% of these signals below 2.83); values are not corrected for it. For each scFv, signals with the empty controls are counted beside the result.

The variant GFTLNSYGIS | VCYSDGRRTFYGDSVK | GRAWGTFDS showed ND, 3.90, ND (controls 0 of 9). With GFTLNSYGIS | VAYSDGRRTFYGDSVK | GRAAGTFDS the result was 3.31, ND, 3.00 (mean 3.16; controls 0 of 9). The variant GFTLNSYGIS | VFYSDGRRTFYSDSVK | GRAAGTFDS showed ND, 2.44, 2.95 (mean 2.70; controls 0 of 9). For GFTVTSYGIS | VVYSDGRRTFYGDSVK | GRAAGTFDS, the assay gave 2.57, 2.94, 3.38 (mean 2.96; controls 1 of 9). With GFTVNSYGIS | VVYSDGRRTFYGDSVK | GRAAGTFDE the result was 3.44, 3.11, ND (mean 3.27; controls 3 of 9). The variant GFTLGSYGIS | VTYSDGRRTEYGDSVK | GRAAGTFDS showed ND, ND, ND (controls 2 of 9). With GFTLNSYGIS | VGPSDGRRTFDGDSVK | GRAAGTFDS the result was ND, ND, ND (controls 0 of 9). For GFTLNSYGIS | VCYSDGRRTFSGDSVG | GRAAGTFDS, the assay gave ND, ND, ND (controls 3 of 9).

The variant GFTLNSYGIS | VTYSHGRRTFGGDSVK | GRAAGTFDS showed ND, ND, ND (controls 2 of 9). With GFTLNSYGVS | VTYSDGRRKFYGDSVK | GRAAGTFDS the result was 3.71, 3.26, ND (mean 3.48; controls 3 of 9). The variant GFTWNSYGIS | VPYSDGRVTFYGDSVK | GRAAGTFDS gave ND, ND, ND (controls 0 of 9). The variant GFTLNSYGII | VRYSDGRRTFYGDSVK | GRAAGTVDS showed ND, ND, ND (controls 1 of 9). The variant GFTLNSYGIS | VEYSDGRRTFTGDSVK | GRAAGTFDS gave ND, 2.97, ND (controls 1 of 9). The variant GFTLNSYGIE | VSYTDGRRTFYGDSVK | GRAAGTFDS gave 3.97, ND, ND (controls 0 of 9). The variant GFTINSYGIS | VFHSDGRRTFYGDSVK | GRAAGTFDS gave 6.19, ND, ND (controls 2 of 9). For GFTLNSYGIS | VSYFDGRRTFYGDSVK | GRAAGTFDS, the assay gave ND, ND, ND (controls 0 of 9).

With GFTFNSYGIS | VMYSDGRRTFYGDSVK | GRNAGTFDS the result was 2.71, 3.25, 2.80 (mean 2.92; controls 2 of 9). With GFTLNSYRIS | VEYSDGRRTFYGDSVK | GMAAGTFDS the result was 2.73, ND, 4.32 (mean 3.53; controls 1 of 9). The variant GFTLNSYGIS | VLYSDGRRMFYGDSVK | GRAAGTFDL showed 1.81, 1.94, 1.52 (mean 1.76; controls 0 of 9). The variant GFTLNSYGIS | VPYSDGRRTFLQDSVK | GRAAGTFDS showed ND, ND, ND (controls 0 of 9). For GFTLNSLGIS | VRYSDGRRTFYGDSVK | GRAAGTEDS, the assay gave ND, ND, ND (controls 0 of 9). The variant GFTLNSYGIS | VVYSDGRRTFYGDSVK | GRGAGTFFS showed ND, ND, ND (controls 3 of 9). The variant GFTLNSYGIS | VHYSDGRRTFYGDCVK | GRAAGTFDS showed ND, ND, ND (controls 1 of 9). The variant GFTLNSYGIP | VFYSDGRRTFYGDAVK | GRAAGTFDS showed ND, ND, ND (controls 0 of 9).

With GFTTNSYGIS | VHYSDGRRTFYGRSVK | GRAAGTFDS the result was ND, ND, ND (controls 0 of 9). The variant GFTLNMYGIS | VCYSDGRRTFYGDSVV | GRAAGTFDS gave 4.63, 4.15, 5.14 (mean 4.64; controls 6 of 9). The variant GFTLNSYDIS | DGYSDGRRTFYGDSVK | GRAAGTFDS gave ND, 5.23, 5.75 (mean 5.49; controls 1 of 9). The variant GFTLNSYGIS | VWYSDGDRTFYGDEVK | GRAAGTFDS showed 3.34, 2.62, ND (mean 2.98; controls 0 of 9). The variant GFTLNSYGIS | VAYSDGRRTFQGDSVK | GRMAGTFDS showed ND, ND, ND (controls 2 of 9). The variant GFTLNSFGIS | VQYSDGRRTFYGDSCK | GRAAGTFDS gave 2.61, ND, ND (controls 0 of 9). With GFTLNSYGIS | VCWSDGRRTFYGASVK | GRAAGTFDS the result was ND, ND, ND (controls 1 of 9). With GETLNSYGIS | VFYSWGRRTFYGDSVK | GRAAGTFDS the result was ND, ND, ND (controls 0 of 9).

The variant GFTLNSYGIS | VNYSDGRRTCYGDSVK | KRAAGTFDS showed 4.73, ND, ND (controls 1 of 9). For GFTLNSYGIS | VTYSDGRRTFYGDSVK | GWEAGTFDS, the assay gave ND, 3.19, ND (controls 5 of 9). For GFTLNSYGIS | VDYSDGRRTFYGDSVK | RRAAGTFDN, the assay gave 3.76, ND, 4.92 (mean 4.34; controls 6 of 9). With GFTLNSYAIS | VCYSDGRRTIYGDSVK | GRAAGTFDS the result was ND, 3.57, ND (controls 2 of 9). For GFTLNSYGIS | VSYSDGRRTFYGDSVK | GRAFGTFDS, the assay gave ND, ND, ND (controls 3 of 9). With GFTLNSYGIS | VGYSDGRRTFYGDSVK | GRAVFTFDS the result was ND, 4.21, ND (controls 0 of 9). With GFLLNSYGIS | VCYSCGRRTFYGDSVK | GRAAGTFDS the result was ND, ND, 3.70 (controls 2 of 9). With GFTLNSYGIS | VSYSDGRRTHYGDSVK | GRAAGVFDS the result was ND, ND, ND (controls 0 of 9).

The variant CFTLNSYGIS | VSYSDGRRTFYGDSVK | GRAAGKFDS gave ND, 4.28, ND (controls 2 of 9). With GFTLNSYGIK | VTYSDGRRTFYGDSVK | GRAAGTFCS the result was ND, ND, ND (controls 0 of 9). With GFTKNSYGIS | VHYSDARRTFYGDSVK | GRAAGTFDS the result was ND, ND, ND (controls 1 of 9). The variant NFTLNSYGIS | VNYSDGRRTFYGDSVK | GRACGTFDS gave ND, ND, ND (controls 1 of 9). With GFTLNSYGIR | VPYSDGRRTFYGDSVK | GRAAGTIDS the result was ND, ND, ND (controls 0 of 9). For GFTLNSYGIS | VHYLEGRRTFYGDSVK | GRAAGTFDS, the assay gave ND, ND, ND (controls 1 of 9). For GFTLNSYGIS | VNYSDGRRHFYGDSVK | GRAAGTFDS, the assay gave 4.83, ND, ND (controls 3 of 9).

For reference, 4 entries of the list once more:

CDR-H1,CDR-H2,CDR-H3,"log10 Kd, replicates","log10 Kd (nM), mean",control signals
GFTLNSYGIS,VAYSDGRRTFQGDSVK,GRMAGTFDS,"ND, ND, ND",ND,2/9
CFTLNSYGIS,VSYSDGRRTFYGDSVK,GRAAGKFDS,"ND, 4.28, ND",4.28,2/9
GFTVNSYGIS,VVYSDGRRTFYGDSVK,GRAAGTFDE,"3.44, 3.11, ND",3.27,3/9
GFTLGSYGIS,VTYSDGRRTEYGDSVK,GRAAGTFDS,"ND, ND, ND",ND,2/9

For reference, the parent read 0.65 as the reference entry and 4.11 (one replicate of three) as a member of this library.